pIC50: −log10 of the molar value.
Test: Tested for inhibition of poly(ADP-ribose) polymerase-1 (PARP-1) in mouse using Cell protection assay

## CCN(CC)CC(=O)Nc1cccc2c1CNC2=O [2-Diethylamino-N-(1-oxo-2,3-dihydro-1H-isoindol-4-yl)-acetamide]
  pIC50: 4.52

Reference: BindingDB's records for doi:10.1016/j.bmcl.2003.10.007 (Inotek Pharmaceuticals, 2003)
